Assay results taken from patent US9206188B2, “Substituted pyrrolo[2,3-b]pyridines as ITK and JAK inhibitors” (Arrien Pharmaceuticals LLC, priority 2013, dated 2015).

The chains behind the UniProt entries cited, without tags or fusion partners. Where a name states a change or a piece, a line headed by the entry shows the natural chain unless it says otherwise.
UniProt Q08881: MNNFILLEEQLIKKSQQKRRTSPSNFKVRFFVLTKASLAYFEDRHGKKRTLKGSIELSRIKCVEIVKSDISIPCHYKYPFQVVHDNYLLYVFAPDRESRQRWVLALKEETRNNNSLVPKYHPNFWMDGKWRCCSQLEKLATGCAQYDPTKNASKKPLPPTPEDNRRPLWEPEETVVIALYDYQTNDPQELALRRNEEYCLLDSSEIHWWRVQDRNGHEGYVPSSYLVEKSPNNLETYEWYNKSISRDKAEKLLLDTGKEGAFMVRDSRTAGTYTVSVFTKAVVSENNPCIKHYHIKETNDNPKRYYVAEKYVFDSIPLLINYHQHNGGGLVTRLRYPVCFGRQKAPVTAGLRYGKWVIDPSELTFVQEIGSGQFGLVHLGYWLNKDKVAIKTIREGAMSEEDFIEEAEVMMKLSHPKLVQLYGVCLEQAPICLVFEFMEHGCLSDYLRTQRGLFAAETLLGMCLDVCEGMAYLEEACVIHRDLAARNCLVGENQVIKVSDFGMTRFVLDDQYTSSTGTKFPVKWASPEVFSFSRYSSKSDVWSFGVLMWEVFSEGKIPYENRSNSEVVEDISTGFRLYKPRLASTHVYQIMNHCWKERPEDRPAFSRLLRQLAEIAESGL

Target: ITK (Homo sapiens (Human), UniProt Q08881)
Test: ITK kinase assay (radiometric filter binding, 10 μM ATP)
Format: biochemical
Conditions: 10-dose IC50 mode, read-out: ITK kinase inhibition
Procedure: All additions were done on ice, followed by the addition of ATP mix. Wells were uniformly mixed using an Eppendorff plate shaker and incubated at 30° C. for 20 min, and stopped by the addition of 5 μL of 3% phosphoric acid. Volume was increased to 100 μL by adding 0.8% phosphoric acid which was then transferred to PC filter mats (Millipore), pre-equilibrated with 70% ethanol and water. Plates were washed thrice with 100 μL 0.8% phosphoric acid and dried for an hour at 60° C. 100 μL scintillation fluid was added into each well and reading taken in Perkin Elmer TOPCOUNT beta counter.
The reactions were carried out at 10 μM ATP for ITK, JAK3 and other TEC and Janus family of kinase.

IC50: > 100 nM
Substance: (E)-N-(2-chloro-5-(3-methyl-1H- pyrrolo[2,3-b]pyridin-5- yl)phenyl)pent-1-enamide [Example 14]
